## Membrane permeability of cyclic peptides

Collected by the curators of CycPeptMPDB (Li et al. 2023) from Townsend et al. 2020, doi:10.26434/chemrxiv.13335941.v1.

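Conditions beyond the assay type are not listed; see the original paper. Other peptides of the study may be missing here. Peptides that the database sets to -10, its floor, are left out.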

PAMPA measures passive passage through an artificial lipid membrane. Permeability is in 10^-6 cm/s, converted from the database's log10 values; higher is more permeable.

compound,PAMPA (10^-6 cm/s)
CC(C)C[C@H]1NC(=O)[C@@H]2CCCN2C(=O)[C@H](CC(C)C)N(C)C(=O)[C@@H](CC(C)C)NC(=O)C[C@H](Cc2ccccc2)NC(=O)[C@H](Cc2ccccc2)NC1=O,3.2
CC(C)C[C@@H]1NC(=O)[C@@H](C)NC(=O)[C@H]2CCCN2C(=O)[C@H](Cc2ccccc2)NC(=O)[C@@H](CC(C)C)NC(=O)[C@H]2CCCN2C(=O)[C@H](CC(C)C)NC1=O,4.6
CCCN1CC(=O)N[C@@H](CC(C)C)C(=O)N(Cc2ccccc2)CC(=O)N2CCC[C@@H]2C(=O)N[C@H](CC(C)C)C(=O)N[C@@H](Cc2ccccc2)C1=O,0.78
CC(C)C[C@@H]1NC(=O)[C@@H]2CCCN2C(=O)[C@@H](CC(C)C)N(C)C(=O)[C@H](CC(C)C)N(C)C(=O)[C@H](C)NC(=O)[C@H]2CCCN2C(=O)[C@H](Cc2ccccc2)NC1=O,0.46
CC(C)C[C@@H]1NC(=O)[C@H](C)NC(=O)[C@H]2CCCN2C(=O)[C@H](Cc2ccccc2)NC(=O)[C@H](CC(C)C)N(C)C(=O)[C@@H]2CCCN2C(=O)CN(Cc2ccccc2)C1=O,1.2
CC(C)C[C@@H]1C(=O)N(Cc2ccccc2)CC(=O)N2CCC[C@@H]2C(=O)N(C)[C@@H](CC(C)C)C(=O)N[C@@H](Cc2ccccc2)C(=O)N2CCC[C@H]2C(=O)N(C)[C@H](C)C(=O)N1C,5.6
CC(C)C[C@@H]1NC(=O)[C@H]2CCCN2C(=O)[C@H](CC(C)C)N(C)C(=O)[C@H](CC(C)C)NC(=O)C[C@H](Cc2ccccc2)NC(=O)[C@H]2CCCN2C(=O)[C@H](Cc2ccccc2)NC1=O,1.4
CC(C)C[C@@H]1NC(=O)[C@@H](CC(C)C)NC(=O)[C@@H](C)N(C)C(=O)[C@H]2CCCN2C(=O)[C@H](Cc2ccccc2)NC(=O)CN(Cc2ccccc2)C(=O)[C@H]2CCCN2C1=O,0.89
CC(C)C[C@H]1NC(=O)[C@H]2CCCN2C(=O)[C@@H](CC(C)C)NC(=O)[C@@H](CC(C)C)NC(=O)[C@@H](C)NC(=O)[C@H]2CCCN2C(=O)[C@H](Cc2ccccc2)NC1=O,0.16
CC(C)C[C@@H]1NC(=O)[C@@H](C)N(C)C(=O)[C@H](Cc2ccccc2)NC(=O)CN(Cc2ccccc2)C(=O)[C@H]2CCCN2C(=O)[C@@H](CC(C)C)NC1=O,2
CCCN1CC(=O)N(C)[C@H](CC(C)C)C(=O)N(C)[C@H](CC(C)C)C(=O)N2CCC[C@H]2C(=O)N(C)[C@H](CC(C)C)C(=O)N[C@@H](Cc2ccccc2)C1=O,14
CC(C)C[C@@H]1NC(=O)[C@H]2CCCN2C(=O)[C@H](CC(C)C)N(C)C(=O)[C@@H](CC(C)C)NC(=O)C[C@H](Cc2ccccc2)NC(=O)[C@@H]2CCCN2C(=O)[C@H](Cc2ccccc2)NC1=O,4.1
CC(C)C[C@@H]1NC(=O)[C@H]2CCCN2C(=O)CN(Cc2ccccc2)C(=O)[C@@H](CC(C)C)N(C)C(=O)[C@@H](C)N(C)C(=O)[C@H](Cc2ccccc2)NC1=O,1.1
CC(C)C[C@@H]1NC(=O)[C@@H](CC(C)C)NC(=O)[C@H](C)NC(=O)[C@H](Cc2ccccc2)NC(=O)[C@@H](CC(C)C)N(C)C(=O)[C@H]2CCCN2C1=O,4
CCCN1CC(=O)N[C@@H](CC(C)C)C(=O)N(Cc2ccccc2)CC(=O)N2CCC[C@H]2C(=O)N(C)[C@H](CC(C)C)C(=O)N[C@@H](Cc2ccccc2)C(=O)N2CCC[C@H]2C1=O,3.9
CC(C)C[C@@H]1NC(=O)C[C@H](Cc2ccccc2)NC(=O)[C@H](Cc2ccccc2)NC(=O)[C@H](CC(C)C)N(C)C(=O)[C@@H]2CCCN2C(=O)C[C@H](Cc2ccccc2)NC1=O,2.5
CC(C)C[C@H]1NC(=O)[C@H](CC(C)C)N(C)C(=O)[C@H](C)NC(=O)[C@H](Cc2ccccc2)NC(=O)CN(Cc2ccccc2)C(=O)[C@@H]2CCCN2C1=O,7.6
CC(C)C[C@H]1C(=O)N2CCC[C@H]2C(=O)N(C)[C@@H](CC(C)C)C(=O)N[C@@H](Cc2ccccc2)C(=O)N[C@H](C)C(=O)N(Cc2ccccc2)CC(=O)N1C,3.6
CC(C)C[C@H]1NC(=O)[C@@H](C)NC(=O)[C@H](Cc2ccccc2)NC(=O)[C@H](CC(C)C)N(C)C(=O)[C@@H]2CCCN2C(=O)[C@@H](CC(C)C)NC1=O,0.16
CC(C)C[C@@H]1C(=O)N[C@@H](Cc2ccccc2)C(=O)N2CCC[C@@H]2C(=O)N(C)[C@@H](C)C(=O)N(Cc2ccccc2)CC(=O)N[C@@H](Cc2ccccc2)CC(=O)N2CCC[C@H]2C(=O)N1C,1.9
CC(C)C[C@H]1NC(=O)[C@@H](C)N(C)C(=O)[C@H]2CCCN2C(=O)[C@H](Cc2ccccc2)NC(=O)CN(Cc2ccccc2)C(=O)[C@@H]2CCCN2C(=O)[C@@H](CC(C)C)NC1=O,1
CC(C)C[C@H]1C(=O)N[C@@H](Cc2ccccc2)CC(=O)N2CCC[C@H]2C(=O)N(C)[C@@H](CC(C)C)C(=O)N[C@@H](Cc2ccccc2)C(=O)N2CCC[C@@H]2C(=O)N(C)[C@H](C)C(=O)N1C,4.7
CC(C)C[C@@H]1NC(=O)[C@@H](CC(C)C)NC(=O)[C@@H](C)NC(=O)[C@H](Cc2ccccc2)NC(=O)[C@@H](CC(C)C)N(C)C(=O)[C@@H]2CCCN2C1=O,1.4
CC(C)C[C@@H]1C(=O)N[C@@H](Cc2ccccc2)C(=O)N2CCC[C@H]2C(=O)N[C@H](C)C(=O)N(C)[C@@H](CC(C)C)C(=O)N(C)[C@@H](CC(C)C)C(=O)N2CCC[C@H]2C(=O)N1C,3.2

Extract of 4 entries:

compound	PAMPA (10^-6 cm/s)
CC(C)C[C@@H]1NC(=O)[C@@H](CC(C)C)NC(=O)[C@@H](C)N(C)C(=O)[C@H]2CCCN2C(=O)[C@H](Cc2ccccc2)NC(=O)CN(Cc2ccccc2)C(=O)[C@H]2CCCN2C1=O	0.89
CC(C)C[C@@H]1NC(=O)[C@H]2CCCN2C(=O)[C@H](CC(C)C)N(C)C(=O)[C@@H](CC(C)C)NC(=O)C[C@H](Cc2ccccc2)NC(=O)[C@@H]2CCCN2C(=O)[C@H](Cc2ccccc2)NC1=O	4.1
CC(C)C[C@@H]1NC(=O)C[C@H](Cc2ccccc2)NC(=O)[C@H](Cc2ccccc2)NC(=O)[C@H](CC(C)C)N(C)C(=O)[C@@H]2CCCN2C(=O)C[C@H](Cc2ccccc2)NC1=O	2.5
CCCN1CC(=O)N(C)[C@H](CC(C)C)C(=O)N(C)[C@H](CC(C)C)C(=O)N2CCC[C@H]2C(=O)N(C)[C@H](CC(C)C)C(=O)N[C@@H](Cc2ccccc2)C1=O	14